Reference: patent publication US12227479B2, “Dihydropyridines for the treatment of cognitive impairment or traumatic brain injury” (Icahn School of Medicine at Mount Sinai, priority 2017, dated 2025)

Experiments:
Aβ42 = assay: Long-term daily IP treatment of AD transgenic mice: brain Aβ42 levels; assay type: in vivo; conditions: APP/PS1 transgenic mouse neocortex, 2.5 mg/kg/day IP for 6 months, vs Tg vehicle
Experimental: (§1) FIG. 6 Long-term in vivo treatment of nimodipine or Example 9 via daily IP injection at 2.5 mg/kg/day in AD transgenic mice. 2-3 months old AD transgenic mice were treated with vehicle, nimodipine or Example 9 at 2.5 mg/kg/day for 6 months via daily IP injection before subjected for behavior studies followed by biochemical analysis. Reduction in levels of insoluble Aβ40 and soluble Aβ42 with Example 9 treated Tg animal brains. […] N=5-7/group. Vehicle-treated conditions were used as controls and results were presented as percentage of the control (±SEM). One-way ANOVA was performed followed by post-hoc multiple comparison tests to determine the significance of differences between drug-treated vs DMSO control. *p<0.05, **p<0.01.

Aβ40 = assay: Long-term daily IP treatment of AD transgenic mice: brain Aβ40 levels; assay type: in vivo; conditions: APP/PS1 transgenic mouse neocortex, 2.5 mg/kg/day IP for 6 months, vs Tg vehicle
Experimental: as §1

**Q.** For COCCOC(=O)C1=C(C)NC(C)=C(C(=O)OC(C)C)C1c1cccc([N+](=O)[O-])c1 (racemic) [nimodipine, reference compound], which “decrease in insoluble Aβ42 levels” value (Aβ42) is on record?
**A.** Its value is 11%.

**Q.** What about the “decrease in soluble Aβ42 levels” value (Aβ42) of the same compound?
**A.** The value was “insoluble Aβ42 levels, a 16.8% decrease in soluble Aβ42 levels,”.

**Q.** What about the “decrease in insoluble Aβ40 levels” value (Aβ40) of the same compound?
**A.** Its value is 14.2%.
